Results on five compounds are retold here after patent publication US20170008944A1 (priority 2015, published 2017).

A word on the solubility: it is how much of the substance goes into solution per volume. A low value points to little dissolved substance.

Data set [1] relates to female diet-induced obese (DIO) C57BL/6 mice. The experiment in a line: Acute effect on blood glucose in fed female DIO mice. It counts as in vivo. The settings on record: Example 7; 50 μg/kg s.c.; t=1, 2, 3, 4, 6 and 24 h post dosing. How it is done: (§1) C57BL/6 Harlan mice are housed in groups in a specific pathogen-free barrier facility on a 12 h light/dark cycle with free access to water and standard or high-fat diet. After 16 weeks of prefeeding on high-fat diet, mice are stratified to treatment groups (n=8), so that each group has similar mean body weight. An age-matched group with ad-libitum access to standard chow is included as standard control group. Prior to the start of treatment, mice are subcutaneously (s.c.) injected with vehicle solution and weighed for 3 days to acclimate them to the procedures.
The volume of administration is 5 mL/kg. The animals have access to water and their corresponding diet during the experiment. Blood glucose levels are measured at t=0 h, t=1 h, t=2 h, t=3 h, t=4 h, t=6 h and t=24 h (method: Accu-Check glucometer). Blood sampling is performed by tail incision without anaesthesia.
(§2) Statistical analyses are performed with Everstat 6.0 by repeated measures two-way ANOVA and Dunnetts post-hoc analyses (glucose profile) and 1-way-ANOVA, followed by Dunnetts post-hoc test (body weight, body fat). Differences versus vehicle-treated DIO control mice are considered statistically significant at the p<0.05 level.
At predefined time points, more blood samples were taken to measure blood glucose and generate the blood glucose profile over 24 h.

Data set [2] shares this test system. The experiment in a line: Chronic effect on body weight, body fat and food consumption in female DIO mice. The settings on record: 50 μg/kg bid s.c.; for Body fat change: NMR; for Body fat change / Overall weight change: mean ± SEM; for daily body weight compared to vehicle DIO control mice / day on which significant body weight decrease begins: Example 7, 4 weeks; for day on which significant body weight decrease begins: continuing through end of study. It counts as in vivo. How it is done: as §1
Body weight is recorded daily. Two days before start of treatment and on day 26, total fat mass is measured by nuclear magnetic resonance (NMR).
as §2
Body weight was recorded daily, and body fat content was determined before the start and after 4 weeks of treatment.
Body weight and food consumption were recorded daily.

Data set [3] is described as follows: Solubility in buffer with m-cresol, UPLC-UV. Type of data set: physicochemical. The conditions noted are these: 2.7 mg/ml m-cresol. How it is done: Prior to the solubility and stability measurement of a peptide batch, its purity was determined through UPLC/MS.
Therefore solutions from solid samples were prepared in two different buffer systems with a concentration of 10 mg/mL compound based on the previously determined % purity:
a) Acetate Buffer pH 4.5, 100 mM sodium acetate trihydrate, 2.7 mg/ml m-cresol
b) Phosphate Buffer pH 7.4, 100 mM sodium hydrogen phosphate, 2.7 mg/ml m-cresol
UPLC-UV was performed after 2 hours of gentle agitation from the supernatant, which was obtained after 20 min of centrifugation at 3000 RCF (relative centrifugal acceleration).
The standards are dilutions (by injecting various volumes ranging from 0.2-2 μl) of the DMSO stock solution of the peptide at a concentration of 1.2 mg/mL (based on % purity). The sample also served as starting point (t0) for the stability testing.

[4] abbreviates: acetate buffer with m-cresol, pH 4.5, acetate buffer.
The mark [5] stands for this setting: phosphate buffer with m-cresol, pH 7.4, phosphate buffer.

Where only a bound is given, the exact number is not on record here.

As to `CCCCCCCCCCCCCCCC(=O)N[C@@H](CCC(=O)N[C@@H](CCC(=O)NCCCC[C@H](NC(=O)[C@H](CCC(N)=O)NC(=O)[C@H](CCCCN)NC(=O)[C@H](CO)NC(=O)[C@H](CC(C)C)NC(=O)[C@H](CC(=O)O)NC(=O)[C@H](CO)NC(=O)[C@@H](NC(=O)[C@H](Cc1ccccc1)NC(=O)[C@@H](NC(=O)CNC(=O)[C@H](CCC(N)=O)NC(=O)C(C)(C)NC(=O)[C@@H](N)Cc1c[nH]cn1)[C@@H](C)O)[C@@H](C)O)C(=O)N[C@@H](CC(=O)O)C(=O)N[C@@H](CCC(=O)O)C(=O)N[C@@H](CCC(N)=O)C(=O)N[C@@H](CCCNC(=N)N)C(=O)N[C@@H](C)C(=O)N[C@@H](CCCCN)C(=O)N[C@@H](CC(C)C)C(=O)N[C@@H](Cc1ccccc1)C(=O)N[C@H](C(=O)N[C@@H](CCC(=O)O)C(=O)N[C@@H](Cc1c[nH]c2ccccc12)C(=O)N[C@@H](CC(C)C)C(=O)NC(C)(C)C(=O)N[C@@H](C)C(=O)N[C@H](C)C(=O)NCC(=O)N1CCC[C@H]1C(=O)N1CCC[C@H]1C(=O)N[C@@H](CO)C(=O)NC(C)(C)C(=O)N[C@@H](CCCCN)C(=O)N1CCC[C@H]1C(=O)N1CCC[C@H]1C(=O)N1CCC[C@H]1C(=O)N[C@@H](CCCCN)C(N)=O)[C@@H](C)CC)C(=O)O)C(=O)O` [SEQ ID NO: 6, H-Aib-Q-G-T-F-T-S-D-L-S-K-Q-K[gGlu-gGlu-Palm]-D-E-Q-R-A-K-L-F-I-E-W-L-Aib-A-dAla-G-P-P-S-Aib-K-P-P-P-K-NH2], the “blood glucose compared to DIO control mice” value in data set [1] is given as “significant decrease in blood glucose”. In data set [2] (4-week treatment), this compound yielded a Body fat change of -4.44 ± 0.47 g and an Overall weight change of -11.71 ± 1.45 g. Further, in data set [2], the “daily body weight compared to vehicle DIO control mice” value is “statistically significant decrease” and the “day on which significant body weight decrease begins” value is 7 days. The same compound came in with a solubility at 2 h in data set [3] (setting [4]) above 7000 µg/mL.

In turn, `CCCCCCCCCCCCCCCC(=O)N[C@@H](CCC(=O)N[C@@H](CCC(=O)NCCCC[C@H](NC(=O)[C@H](CCC(N)=O)NC(=O)[C@H](CCCCN)NC(=O)[C@H](CO)NC(=O)[C@H](CC(C)C)NC(=O)[C@H](CC(=O)O)NC(=O)[C@H](CO)NC(=O)[C@@H](NC(=O)[C@H](Cc1ccccc1)NC(=O)[C@@H](NC(=O)CNC(=O)[C@H](CCC(N)=O)NC(=O)C(C)(C)NC(=O)[C@@H](N)Cc1c[nH]cn1)[C@@H](C)O)[C@@H](C)O)C(=O)N[C@@H](CC(=O)O)C(=O)N[C@@H](CCC(=O)O)C(=O)N[C@@H](CCC(N)=O)C(=O)N[C@@H](CCCNC(=N)N)C(=O)N[C@@H](C)C(=O)N[C@@H](CCCCN)C(=O)N[C@@H](CC(C)C)C(=O)N[C@@H](Cc1ccccc1)C(=O)N[C@H](C(=O)N[C@@H](CCC(=O)O)C(=O)N[C@@H](Cc1c[nH]c2ccccc12)C(=O)N[C@@H](CC(C)C)C(=O)NC(C)(C)C(=O)N[C@@H](CCCCN)C(=O)NCC(=O)NCC(=O)N1CCC[C@H]1C(=O)N1CCC[C@H]1C(=O)N[C@@H](CO)C(=O)NC(C)(C)C(=O)N[C@@H](CCCCN)C(=O)N1CCC[C@H]1C(=O)N1CCC[C@H]1C(=O)N1CCC[C@H]1C(=O)N[C@@H](CCCCN)C(N)=O)[C@@H](C)CC)C(=O)O)C(=O)O` [SEQ ID NO: 8, H-Aib-Q-G-T-F-T-S-D-L-S-K-Q-K[gGlu-gGlu-Palm]-D-E-Q-R-A-K-L-F-I-E-W-L-Aib-K-G-G-P-P-S-Aib-K-P-P-P-K-NH2] showed an Overall weight change in data set [2] (2-week treatment) of -1.66 ± 0.5 g. Moreover, the solubility at 2 h in data set [3] (setting [4]) and in data set [3] (setting [5]) was above 7000 µg/mL throughout.

As to `CCCCCCCCCCCCCCCC(=O)N[C@@H](CCC(=O)N[C@@H](CCC(=O)NCCCC[C@H](NC(=O)[C@H](CCC(N)=O)NC(=O)[C@H](CCCCN)NC(=O)[C@H](CO)NC(=O)[C@H](CC(C)C)NC(=O)[C@H](CC(=O)O)NC(=O)[C@H](CO)NC(=O)[C@@H](NC(=O)[C@H](Cc1ccccc1)NC(=O)[C@@H](NC(=O)CNC(=O)[C@H](CCC(N)=O)NC(=O)C(C)(C)NC(=O)[C@@H](N)Cc1c[nH]cn1)[C@@H](C)O)[C@@H](C)O)C(=O)N[C@@H](CC(=O)O)C(=O)N[C@@H](CCC(=O)O)C(=O)N[C@@H](CCC(N)=O)C(=O)N[C@@H](CCCNC(=N)N)C(=O)N[C@@H](C)C(=O)N[C@@H](CCCCN)C(=O)N[C@@H](CC(C)C)C(=O)N[C@@H](Cc1ccccc1)C(=O)N[C@H](C(=O)N[C@@H](CCC(=O)O)C(=O)N[C@@H](Cc1c[nH]c2ccccc12)C(=O)N[C@@H](CC(C)C)C(=O)NC(C)(C)C(=O)N[C@@H](CO)C(=O)NCC(=O)NCC(=O)N1CCC[C@H]1C(=O)N1CCC[C@H]1C(=O)N[C@@H](CO)C(=O)NC(C)(C)C(=O)N[C@@H](CCCCN)C(=O)N1CCC[C@H]1C(=O)N1CCC[C@H]1C(=O)N1CCC[C@H]1C(=O)N[C@@H](CCCCN)C(N)=O)[C@@H](C)CC)C(=O)O)C(=O)O` [SEQ ID NO: 15, H-Aib-Q-G-T-F-T-S-D-L-S-K-Q-K[gGlu-gGlu-Palm]-D-E-Q-R-A-K-L-F-I-E-W-L-Aib-S-G-G-P-P-S-Aib-K-P-P-P-K-NH2], the Overall weight change in data set [2] (2-week treatment) is -2.6 ± 0.5 g.

As to `CCCCCCCCCCCCCCCC(=O)N[C@@H](CCC(=O)N[C@@H](CCC(=O)NCCCC[C@H](NC(=O)[C@H](CCC(N)=O)NC(=O)[C@H](CCCCN)NC(=O)[C@H](CO)NC(=O)[C@H](CC(C)C)NC(=O)[C@H](CC(=O)O)NC(=O)[C@H](CO)NC(=O)[C@@H](NC(=O)[C@H](Cc1ccccc1)NC(=O)[C@@H](NC(=O)CNC(=O)[C@H](CCC(N)=O)NC(=O)C(C)(C)NC(=O)[C@@H](N)Cc1c[nH]cn1)[C@@H](C)O)[C@@H](C)O)C(=O)N[C@@H](CC(=O)O)C(=O)N[C@@H](CCC(=O)O)C(=O)N[C@@H](CCC(N)=O)C(=O)N[C@@H](CCCNC(=N)N)C(=O)N[C@@H](C)C(=O)N[C@@H](CCCCN)C(=O)N[C@@H](CC(C)C)C(=O)N[C@@H](Cc1ccccc1)C(=O)N[C@H](C(=O)N[C@@H](CCC(=O)O)C(=O)N[C@@H](Cc1c[nH]c2ccccc12)C(=O)N[C@@H](CC(C)C)C(=O)NC(C)(C)C(=O)N[C@@H](C)C(=O)NCC(=O)NCC(=O)N1CCC[C@H]1C(=O)N1CCC[C@H]1C(=O)N[C@@H](CO)C(=O)NC(C)(C)C(=O)N[C@@H](CCCCN)C(=O)N1CCC[C@H]1C(=O)N1CCC[C@H]1C(=O)N1CCC[C@H]1C(=O)N[C@@H](CCCCN)C(N)=O)[C@@H](C)CC)C(=O)O)C(=O)O` [SEQ ID NO: 7, H-Aib-Q-G-T-F-T-S-D-L-S-K-Q-K[gGlu-gGlu-Palm]-D-E-Q-R-A-K-L-F-I-E-W-L-Aib-A-G-G-P-P-S-Aib-K-P-P-P-K-NH2], the “blood glucose compared to DIO control mice” value in data set [1] is “significant decrease in blood glucose”. Also, in data set [2] (4-week treatment), the Body fat change is -3.83 ± 1.38 g and the Overall weight change is -8.45 ± 3.2 g. For the same compound, in data set [2], the “daily body weight compared to vehicle DIO control mice” value was “reduced body weight significantly” and the “day on which significant body weight decrease begins” value came out at 5 days. For the same compound, in data set [3] (setting [4]), the solubility at 2 h is above 7000 µg/mL. Also, in data set [3] (setting [5]), the solubility at 2 h is above 7000 µg/mL.

Regarding `CCCCCCCCCCCCCCCCCC(=O)N[C@@H](CCC(=O)NCCCC[C@H](NC(=O)[C@H](CCC(N)=O)NC(=O)[C@H](CCCCN)NC(=O)[C@H](CO)NC(=O)[C@H](CC(C)C)NC(=O)[C@H](CC(=O)O)NC(=O)[C@H](CO)NC(=O)[C@@H](NC(=O)[C@H](Cc1ccccc1)NC(=O)[C@@H](NC(=O)CNC(=O)[C@H](CCC(N)=O)NC(=O)C(C)(C)NC(=O)[C@@H](N)Cc1c[nH]cn1)[C@@H](C)O)[C@@H](C)O)C(=O)N[C@@H](CC(=O)O)C(=O)N[C@@H](CCC(=O)O)C(=O)N[C@@H](CCC(N)=O)C(=O)N[C@@H](CCCNC(=N)N)C(=O)N[C@@H](C)C(=O)N[C@@H](CCCCN)C(=O)N[C@@H](CC(C)C)C(=O)N[C@@H](Cc1ccccc1)C(=O)N[C@H](C(=O)N[C@@H](CCC(=O)O)C(=O)N[C@@H](Cc1c[nH]c2ccccc12)C(=O)N[C@@H](CC(C)C)C(=O)NC(C)(C)C(=O)N[C@@H](C)C(=O)NCC(=O)NCC(=O)N1CCC[C@H]1C(=O)N1CCC[C@H]1C(=O)N[C@@H](CO)C(=O)NC(C)(C)C(=O)N[C@@H](CCCCN)C(=O)N1CCC[C@H]1C(=O)N1CCC[C@H]1C(=O)N1CCC[C@H]1C(=O)N[C@@H](CCCCN)C(N)=O)[C@@H](C)CC)C(=O)O` [SEQ ID NO: 9, H-Aib-Q-G-T-F-T-S-D-L-S-K-Q-K[gGlu-Stea]-D-E-Q-R-A-K-L-F-I-E-W-L-Aib-A-G-G-P-P-S-Aib-K-P-P-P-K-NH2], in data set [2] (2-week treatment), the Overall weight change is -2.5 ± 0.2 g.
